This is one part of the list.
T1: LIN28A (human?, UniProt Q9H9Z2 1-209)
T1 sequence: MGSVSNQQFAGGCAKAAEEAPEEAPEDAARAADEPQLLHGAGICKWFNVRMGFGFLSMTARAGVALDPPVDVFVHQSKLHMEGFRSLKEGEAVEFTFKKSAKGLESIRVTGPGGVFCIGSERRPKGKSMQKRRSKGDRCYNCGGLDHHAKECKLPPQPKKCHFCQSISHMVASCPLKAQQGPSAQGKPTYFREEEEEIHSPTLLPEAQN

T2: CIRBP (Homo sapiens, UniProt Q14011 1-172)
T2 sequence: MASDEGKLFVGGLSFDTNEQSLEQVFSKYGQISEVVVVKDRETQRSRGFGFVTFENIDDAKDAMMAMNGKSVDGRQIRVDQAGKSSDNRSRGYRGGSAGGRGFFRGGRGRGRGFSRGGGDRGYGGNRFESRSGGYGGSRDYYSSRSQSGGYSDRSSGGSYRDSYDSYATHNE

T3: DHX36 (Homo sapiens, UniProt Q9H2U1 1-1008)
T3 sequence: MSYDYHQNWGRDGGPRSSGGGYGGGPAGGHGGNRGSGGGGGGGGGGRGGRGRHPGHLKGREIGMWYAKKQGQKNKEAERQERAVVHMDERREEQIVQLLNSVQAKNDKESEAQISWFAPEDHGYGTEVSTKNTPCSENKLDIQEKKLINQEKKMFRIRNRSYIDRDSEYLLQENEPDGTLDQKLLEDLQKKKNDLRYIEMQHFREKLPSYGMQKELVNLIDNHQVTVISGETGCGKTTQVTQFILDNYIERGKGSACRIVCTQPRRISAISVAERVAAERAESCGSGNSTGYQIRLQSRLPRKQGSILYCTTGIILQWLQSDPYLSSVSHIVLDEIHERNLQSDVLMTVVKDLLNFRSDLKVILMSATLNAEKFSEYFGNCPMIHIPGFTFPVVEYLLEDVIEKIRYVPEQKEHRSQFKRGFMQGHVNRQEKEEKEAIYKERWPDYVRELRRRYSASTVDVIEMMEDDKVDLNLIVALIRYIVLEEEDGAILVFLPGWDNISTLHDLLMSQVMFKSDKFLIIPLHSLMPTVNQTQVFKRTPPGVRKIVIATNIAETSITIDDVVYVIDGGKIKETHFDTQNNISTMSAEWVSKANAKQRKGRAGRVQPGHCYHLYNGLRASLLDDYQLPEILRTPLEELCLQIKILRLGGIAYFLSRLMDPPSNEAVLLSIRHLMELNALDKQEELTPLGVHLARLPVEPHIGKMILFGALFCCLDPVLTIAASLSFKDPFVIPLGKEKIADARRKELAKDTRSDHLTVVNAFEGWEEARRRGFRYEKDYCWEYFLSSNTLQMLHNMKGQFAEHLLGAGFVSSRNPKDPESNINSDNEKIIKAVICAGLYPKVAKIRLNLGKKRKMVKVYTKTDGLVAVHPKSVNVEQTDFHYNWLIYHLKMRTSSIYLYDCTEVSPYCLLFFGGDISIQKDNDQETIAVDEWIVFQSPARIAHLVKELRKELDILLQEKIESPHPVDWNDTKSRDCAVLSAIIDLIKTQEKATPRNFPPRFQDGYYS

B1: hsa-mir-6130 (structured_RNA)
RNA: GGGAACAACUCUCGCGACCUAAAGCACUGGUGUACGAAGUUUCAGCUAUAUACUGAUGUAAUUUUCCUUGGAUUUAUAUGCAGUACUGAGGCUGAAGCUUCGUGCAC
B2: hsa-mir-5186 (structured_RNA)
RNA: GGGACGCAUAGUCAGUUGUGCUCUAAACGGUGUACGAAGUUUCAGCCUUUCCUCAGCUGAUUUCUUUCUGGGGAGAGGCUGAAGCUUCGUGCAC
B3: r(GAA)16: (structured_RNA)
RNA: GGGAAAUCCGCUCAGCUGCCUUUACCGUGGUGUACGAAGUUUCAGCGAAGAAGAAGAAGAAGAAGAAGAAGAAGAAGAAGAAGAAGAAGAAGAAGCUGAAGCUUCGUGCAC
B4: hsa-mir-1260a (structured_RNA)
RNA: GGGAAAAGGUUCCGGCAGCACUCGAAUGGGUGUACGAAGUUUCAGCACCAAAACACUCAUCGCGGGCUGAAGCUUCGUGCAC
B5: hsa-mir-4634 (structured_RNA)
RNA: GGGACACGUAGGCACGCACUGAAAUCACGGUGUACGAAGUUUCAGCGGGGCUCUUGCUGAAGCUUCGUGCAC
B6: hsa-mir-378e (structured_RNA)
RNA: GGGACAGCUGGUGUAAAGCGACAAUCACGGUGUACGAAGUUUCAGCCAGGCCAGGGGCAGACAGUGGACAGAGAACAGUGCCCAAGACCACUGGCUGAAGCUUCGUGCAC
B7: hsa-mir-5579 (structured_RNA)
RNA: GGGAAGUUCGAUCCAUUCGCGGGACGACGGUGUACGAAGUUUCAGCCUAACAGGCCCCUGUCACCAUUAGGCUGAAGCUUCGUGCAC
B8: hsa-mir-325 (structured_RNA)
RNA: GGGACCACUCCCUGGGACGUUAACAACGGGUGUACGAAGUUUCAGCGUGUUUGUGACAUAAUUUGUGCUGAAGCUUCGUGCAC
B9: hsa-mir-6834 (structured_RNA)
RNA: GGGAAAGAGAAGGCAGUCUUUCAUAGAGGGUGUACGAAGUUUCAGCUUUGUGGGGCGAGGAGGGACCUGUACUAGCCAUGGUUCUGAUCACAUAUGGCUGAAGCUUCGUGCAC
B10: hsa-mir-5589 (structured_RNA)
RNA: GGGACCACAACGUUCGAGAACCAAAAUCGGUGUACGAAGUUUCAGCUGCAGUGAGCAACCUACACAACUGCAGCUGAAGCUUCGUGCAC
B11: hsa-let-7a-2 (structured_RNA)
RNA: GGGAAAACACGUCAGCGCAACAAGGUUUGGUGUACGAAGUUUCAGCAUAGUUUAGAAUUACAUCAAGGGAGAUAACUGUGCUGAAGCUUCGUGCAC
B12: hsa-mir-3150b (structured_RNA)
RNA: GGGACACGAGCUUGCCCGCGUAUUUACUGGUGUACGAAGUUUCAGCCCCAGCCUUGGCGUUCAGGUGCUGAGGCUGAAGCUUCGUGCAC
B13: PARIS_ID39 (structured_RNA)
RNA: GGGACACAGGAGGGACGUCUAUCUAAUCGGUGUACGAAGUUUCAGCAUAUUAACUUCUUAUAAUUUUCUUUUUUUUUCUUUAUGUGUGUGUGCUGAAGCUUCGUGCAC
B14: PARIS_ID23 (structured_RNA)
RNA: GGGAUCAAGCAUUGCCGUUCGAUCCGAUGGUGUACGAAGUUUCAGCGUAGUGAAGUCUGAGAUUUUACUACACCUUCCACUUAUGUGGUCCCACACCACCCGCCUCCCCUGCGCUGAAGCUUCGUGCAC
B15: hsa-mir-6760 (structured_RNA)
RNA: GGGACGGCGGGCCACUAUUAUAAGAGUUGGUGUACGAAGUUUCAGCCAGAGUGGGCUCACCUCUCGCCCACACUGGCUGAAGCUUCGUGCAC
B16: hsa-mir-6881 (structured_RNA)
RNA: GGGACCAGGCGAACCUCAACCCAAUGAGGGUGUACGAAGUUUCAGCGGGUCAGGUCUGCAGCCUUGUAUCUGCUGAUCCGCUGAAGCUUCGUGCAC
B17: hsa-mir-551b (structured_RNA)
RNA: GGGAAGUUGGUAAGAACCGACUGAACUCGGUGUACGAAGUUUCAGCUGAGACCUGGUGCAGAACGGGAAGGCGAGCUGAAGCUUCGUGCAC
B18: hsa-mir-5588 (structured_RNA)
RNA: GGGAGAAACGAAAGUAAAACCUCAGGAUGGUGUACGAAGUUUCAGCACUUUUUUUUUUUUUUUUUUUAAUGUUAAAAGUGCUGAAGCUUCGUGCAC
B19: hsa-mir-5695 (structured_RNA)
RNA: GGGAGAGCUAACGAGUUUCAGAAAGCACGGUGUACGAAGUUUCAGCGCCUCUCUGAGCAUGCAUUCCUGAGACUCGCUGAAGCUUCGUGCAC
B20: hsa-let-7e (structured_RNA)
RNA: GGGACAAGGUCUGUACGCCACAAGGACAGGUGUACGAAGUUUCAGCAUAGUUGAGGAGGACACCCAAGGAGAUCACUAUGCUGAAGCUUCGUGCAC
B21: hsa-mir-6780a (structured_RNA)
RNA: GGGAAGCGAGCAAUCCUACGUGGCUACGGGUGUACGAAGUUUCAGCGGAGAGUAUGGUCACAGCAGCAUCCUCCGCUGAAGCUUCGUGCAC
B22: hsa-mir-7848 (structured_RNA)
RNA: GGGACGGAAGUCUCGCUGCAACAUACCCGGUGUACGAAGUUUCAGCUAUGCAAAGCUCUGACAGUGUUUCACUUGCUAGCUGAAGCUUCGUGCAC

Target: U1A (Homo sapiens, UniProt P09012)
Test: FOREST: bead pull-down of RNA structure library v1, barcode microarray; U1A/LIN28A: 20 mM HEPES pH 7.5, 80 mM KCl, 20 mM NaCl, 10% glycerol, 2 mM DTT, 0.1 ug/uL BSA, 4 C; BG4/CIRBP/DHX36: 10 mM Tris-HCl pH 7.5, 100 mM KCl (or LiCl),; high values mean tight binding

In order of rising binding signal:
1. B22  1.29 z-score
2. B19  1.3 z-score
3. B20  1.3 z-score
4. B21  1.3 z-score
5. B17  1.31 z-score
6. B18  1.31 z-score
7. B16  1.32 z-score
8. B12  1.33 z-score
9. B13  1.33 z-score
10. B15  1.33 z-score
11. B11  1.35 z-score
12. B10  1.36 z-score
13. B7  1.37 z-score
14. B8  1.37 z-score
15. B9  1.37 z-score
16. B2  1.38 z-score
17. B4  1.38 z-score
18. B5  1.38 z-score
19. B6  1.38 z-score
20. B1  1.39 z-score
21. B14  2.65 z-score
22. B3  2.7 z-score

Target: T1, LIN28A
Test: as above

In order of rising binding signal:
1. B15  -1.65 z-score
2. B7  -1.39 z-score
3. B22  -1.07 z-score
4. B16  -0.872 z-score
5. B5  -0.644 z-score
6. B18  -0.562 z-score
7. B14  -0.425 z-score
8. B19  -0.374 z-score
9. B4  -0.346 z-score
10. B1  -0.295 z-score
11. B2  0.00297 z-score
12. B13  0.135 z-score
13. B10  0.184 z-score
14. B8  0.252 z-score
15. B17  0.319 z-score
16. B12  0.549 z-score
17. B21  0.672 z-score
18. B9  1.01 z-score
19. B6  1.5 z-score
20. B11  1.96 z-score
21. B20  2.29 z-score
22. B3  2.77 z-score

Target: T2, CIRBP
Test: as above

In order of falling binding signal:
1. B3  10.7 z-score
2. B9  1.89 z-score
3. B13  1.52 z-score
4. B18  1.04 z-score
5. B20  0.901 z-score
6. B11  0.893 z-score
7. B2  0.718 z-score
8. B10  0.671 z-score
9. B21  0.608 z-score
10. B1  0.546 z-score
11. B19  -0.00669 z-score
12. B6  -0.296 z-score
13. B17  -0.311 z-score
14. B12  -0.325 z-score
15. B22  -0.465 z-score
16. B7  -0.618 z-score
17. B16  -0.743 z-score
18. B5  -0.977 z-score
19. B4  -1.21 z-score
20. B8  -1.24 z-score
21. B14  -1.81 z-score
22. B15  -1.9 z-score

Target: T3, DHX36
Test: as above

In order of rising binding signal:
1. B10  -0.95 z-score
2. B22  -0.942 z-score
3. B16  -0.731 z-score
4. B8  -0.633 z-score
5. B1  -0.476 z-score
6. B19  -0.381 z-score
7. B17  -0.325 z-score
8. B7  -0.291 z-score
9. B14  -0.13 z-score
10. B4  -0.074 z-score
11. B21  0.0197 z-score
12. B15  0.07 z-score
13. B5  0.261 z-score
14. B18  0.281 z-score
15. B12  0.288 z-score
16. B2  0.554 z-score
17. B20  0.734 z-score
18. B13  0.918 z-score
19. B6  1.79 z-score
20. B11  1.83 z-score
21. B9  2.76 z-score
22. B3  2.93 z-score
